Assay results from US7189729B2, “Methods and compositions as protein kinase inhibitors” (IRM LLC, priority 2003, dated 2007).

Sequences of proteins named here, by UniProt entry; tags and fusion partners are left off. A change or cut given only in a name is not applied to a line headed by its entry. Residues count along the entry.
UniProt O96017, whole entry, species assumed: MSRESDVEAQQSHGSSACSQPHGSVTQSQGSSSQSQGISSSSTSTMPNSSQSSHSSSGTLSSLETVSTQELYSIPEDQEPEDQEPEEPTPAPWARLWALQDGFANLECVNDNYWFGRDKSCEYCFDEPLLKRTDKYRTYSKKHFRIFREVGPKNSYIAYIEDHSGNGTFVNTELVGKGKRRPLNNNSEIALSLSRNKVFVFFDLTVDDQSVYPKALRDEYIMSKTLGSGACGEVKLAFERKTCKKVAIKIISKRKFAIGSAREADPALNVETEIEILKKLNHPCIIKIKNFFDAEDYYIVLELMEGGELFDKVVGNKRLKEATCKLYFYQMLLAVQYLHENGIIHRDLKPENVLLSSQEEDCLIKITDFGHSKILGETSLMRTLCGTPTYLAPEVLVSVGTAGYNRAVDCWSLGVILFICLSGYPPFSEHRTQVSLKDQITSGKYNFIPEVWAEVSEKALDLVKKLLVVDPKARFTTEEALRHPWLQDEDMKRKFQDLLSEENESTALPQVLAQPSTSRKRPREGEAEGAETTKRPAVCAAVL
UniProt P23443: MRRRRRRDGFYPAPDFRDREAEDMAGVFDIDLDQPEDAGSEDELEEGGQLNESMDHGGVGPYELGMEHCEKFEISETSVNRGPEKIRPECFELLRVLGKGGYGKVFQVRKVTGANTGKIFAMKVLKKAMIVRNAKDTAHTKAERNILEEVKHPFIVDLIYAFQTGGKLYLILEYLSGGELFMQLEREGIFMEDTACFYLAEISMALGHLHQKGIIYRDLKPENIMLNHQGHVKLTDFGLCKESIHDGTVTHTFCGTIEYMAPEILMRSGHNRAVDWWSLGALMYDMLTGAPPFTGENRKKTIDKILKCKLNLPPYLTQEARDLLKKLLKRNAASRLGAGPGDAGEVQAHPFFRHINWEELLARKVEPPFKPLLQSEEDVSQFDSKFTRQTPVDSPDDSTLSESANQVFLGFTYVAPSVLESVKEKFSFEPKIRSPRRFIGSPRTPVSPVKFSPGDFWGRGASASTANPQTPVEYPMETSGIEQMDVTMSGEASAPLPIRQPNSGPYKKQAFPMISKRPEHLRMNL
UniProt P16234, 24-1089, species assumed: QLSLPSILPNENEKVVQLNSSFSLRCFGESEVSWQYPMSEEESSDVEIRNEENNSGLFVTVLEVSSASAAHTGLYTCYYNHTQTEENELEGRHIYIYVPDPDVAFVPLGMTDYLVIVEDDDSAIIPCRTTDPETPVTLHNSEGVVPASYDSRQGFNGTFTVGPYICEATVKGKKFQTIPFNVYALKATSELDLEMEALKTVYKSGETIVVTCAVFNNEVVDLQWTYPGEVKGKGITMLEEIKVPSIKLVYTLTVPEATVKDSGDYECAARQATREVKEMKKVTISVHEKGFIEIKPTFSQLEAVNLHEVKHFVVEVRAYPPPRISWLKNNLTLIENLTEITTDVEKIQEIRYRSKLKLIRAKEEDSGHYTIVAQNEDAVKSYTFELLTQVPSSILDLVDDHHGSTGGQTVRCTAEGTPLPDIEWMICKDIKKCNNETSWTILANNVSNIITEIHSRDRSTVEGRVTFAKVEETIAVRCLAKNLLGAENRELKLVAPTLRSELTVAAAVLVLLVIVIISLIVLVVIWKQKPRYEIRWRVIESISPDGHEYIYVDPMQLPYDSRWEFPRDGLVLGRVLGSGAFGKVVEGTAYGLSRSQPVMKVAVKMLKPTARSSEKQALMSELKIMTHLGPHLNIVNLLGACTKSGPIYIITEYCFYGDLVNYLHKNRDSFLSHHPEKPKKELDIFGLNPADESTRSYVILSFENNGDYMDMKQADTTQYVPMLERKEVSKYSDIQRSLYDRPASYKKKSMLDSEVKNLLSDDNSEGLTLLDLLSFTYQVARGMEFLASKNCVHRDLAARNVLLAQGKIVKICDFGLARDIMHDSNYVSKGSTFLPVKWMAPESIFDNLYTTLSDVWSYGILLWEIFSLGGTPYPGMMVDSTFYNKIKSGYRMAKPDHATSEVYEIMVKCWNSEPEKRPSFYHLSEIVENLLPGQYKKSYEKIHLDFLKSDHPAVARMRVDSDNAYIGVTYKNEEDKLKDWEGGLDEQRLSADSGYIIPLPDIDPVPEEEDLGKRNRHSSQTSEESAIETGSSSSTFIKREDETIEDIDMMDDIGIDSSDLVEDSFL
UniProt P22607, 23-806, species assumed: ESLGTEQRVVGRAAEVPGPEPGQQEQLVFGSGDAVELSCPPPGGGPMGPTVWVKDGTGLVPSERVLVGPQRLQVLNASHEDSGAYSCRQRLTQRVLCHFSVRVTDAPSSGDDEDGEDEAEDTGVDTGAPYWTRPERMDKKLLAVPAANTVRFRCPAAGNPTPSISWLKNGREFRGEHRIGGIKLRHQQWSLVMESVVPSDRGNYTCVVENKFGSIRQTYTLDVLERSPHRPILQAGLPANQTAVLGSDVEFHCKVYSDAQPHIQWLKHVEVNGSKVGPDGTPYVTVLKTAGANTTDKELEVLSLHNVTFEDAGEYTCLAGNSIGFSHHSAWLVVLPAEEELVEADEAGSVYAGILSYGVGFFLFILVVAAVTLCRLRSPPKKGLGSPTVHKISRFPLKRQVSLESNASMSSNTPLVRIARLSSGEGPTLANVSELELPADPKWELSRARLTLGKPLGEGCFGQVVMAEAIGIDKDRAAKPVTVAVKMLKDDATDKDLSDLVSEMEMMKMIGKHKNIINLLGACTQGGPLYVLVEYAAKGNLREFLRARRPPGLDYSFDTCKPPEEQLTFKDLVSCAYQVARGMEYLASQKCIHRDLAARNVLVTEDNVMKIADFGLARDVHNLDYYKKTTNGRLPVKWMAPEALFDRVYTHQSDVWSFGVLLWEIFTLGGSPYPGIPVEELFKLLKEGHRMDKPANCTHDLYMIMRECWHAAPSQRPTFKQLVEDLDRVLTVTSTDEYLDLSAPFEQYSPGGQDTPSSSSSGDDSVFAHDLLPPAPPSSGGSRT
UniProt P00519, whole entry, species assumed: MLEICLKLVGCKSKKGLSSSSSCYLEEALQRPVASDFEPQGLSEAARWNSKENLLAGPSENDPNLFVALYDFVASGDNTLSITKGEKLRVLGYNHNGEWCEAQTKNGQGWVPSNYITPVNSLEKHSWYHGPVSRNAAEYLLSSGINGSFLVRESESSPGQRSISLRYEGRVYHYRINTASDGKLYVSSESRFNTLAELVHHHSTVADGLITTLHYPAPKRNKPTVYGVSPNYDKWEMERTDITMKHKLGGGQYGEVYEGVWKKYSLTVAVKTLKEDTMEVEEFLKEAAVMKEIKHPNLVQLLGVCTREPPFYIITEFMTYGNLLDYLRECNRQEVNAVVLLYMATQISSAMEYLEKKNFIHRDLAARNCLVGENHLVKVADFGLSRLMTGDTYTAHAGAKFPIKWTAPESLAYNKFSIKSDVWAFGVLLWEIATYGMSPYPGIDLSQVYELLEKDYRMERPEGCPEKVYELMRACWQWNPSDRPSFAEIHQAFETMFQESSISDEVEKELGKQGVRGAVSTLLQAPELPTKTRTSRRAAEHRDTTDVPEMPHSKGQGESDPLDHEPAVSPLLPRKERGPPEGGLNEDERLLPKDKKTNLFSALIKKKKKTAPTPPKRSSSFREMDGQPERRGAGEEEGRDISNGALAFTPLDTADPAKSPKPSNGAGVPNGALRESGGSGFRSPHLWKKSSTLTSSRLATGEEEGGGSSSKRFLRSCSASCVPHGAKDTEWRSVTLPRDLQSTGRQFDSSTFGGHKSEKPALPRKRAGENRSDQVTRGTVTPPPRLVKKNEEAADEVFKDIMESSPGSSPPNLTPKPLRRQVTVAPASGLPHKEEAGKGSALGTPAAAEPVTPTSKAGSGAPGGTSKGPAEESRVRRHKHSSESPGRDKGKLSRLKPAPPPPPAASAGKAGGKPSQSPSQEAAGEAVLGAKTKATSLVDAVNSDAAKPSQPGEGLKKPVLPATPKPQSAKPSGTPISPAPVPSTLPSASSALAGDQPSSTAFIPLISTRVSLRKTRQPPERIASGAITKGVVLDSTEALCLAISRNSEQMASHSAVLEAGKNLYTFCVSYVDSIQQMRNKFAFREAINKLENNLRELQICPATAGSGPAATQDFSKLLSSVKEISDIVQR

Assays:
Experiment in all cases: biochemical
[1] = biological target: CHK2 (Homo sapiens, UniProt O96017); details: read-out: percentage inhibition of CHK2
[2] = biological target: p70S6K (Homo sapiens, UniProt P23443); details: read-out: percentage inhibition of p70S6K
[3] = biological target: c-RAF (Homo sapiens, UniProt P04049); details: read-out: percentage inhibition of c-RAF
[4] = biological target: PDGFRα (Homo sapiens, UniProt P16234); details: read-out: percentage inhibition of PDGFRα
[5] = biological target: FGFR3 (Homo sapiens, UniProt P22607); details: read-out: percentage inhibition of FGFR3
[6] = biological target: PKCα (Homo sapiens, UniProt P17252); details: read-out: percentage inhibition of PKCα
[7] = biological target: Abl (Homo sapiens, UniProt P00519); details: read-out: percentage inhibition of Abl

## CN1CCN(Cc2ccc(C(=O)Nc3cccc(Nc4ccccc4-c4cc(Nc5cccc(N(C)C)c5)ncn4)c3)cc2)CC1 [Example 1, N-(3-{2-[6-(3-Dimethylamino-phenylamino)-pyrimidin-4-yl]-phenylamino}-phenyl)-4-(4-methyl-piperazin-1-ylmethyl)-benzamide]
[1]
  inhibition at 10 µM: 59%
[2]
  inhibition at 10 µM: 79%
[3]
  inhibition at 10 µM: 96%
[4]
  inhibition at 10 µM: 71%
[5]
  inhibition at 10 µM: 56%
[6]
  inhibition at 10 µM: 64%
[7]
  inhibition at 10 µM: 90%
